These are literature values, as cited in patent US12098118B2 (Regents of the University of Minnesota, priority 2018, dated 2024).

The subject of this data set is mice. Conditions: Wade et al. 2008; cited from earlier work.

As to `N=C(N)NCCCCN` [agmatine, 1-(4-aminobutyl)guanidine, reference compound], the oral fentanyl self-administration result is “diminishes”.
